## Apparent affinities of Ab-14 variants for a coronavirus HR2 peptide

Target: peptide PDVDLGDISGINAS, taken from heptad repeat 2 (HR2) of SARS-CoV-2 spike.

The variants keep the heavy chain, the linker and the frameworks of Ab-14 (scFv order VH, a 15-residue (Gly4Ser)3 linker, VL).
VH: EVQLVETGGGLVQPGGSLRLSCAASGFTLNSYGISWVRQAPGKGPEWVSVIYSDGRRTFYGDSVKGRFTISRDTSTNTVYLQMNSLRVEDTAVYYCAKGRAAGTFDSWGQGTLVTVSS
VL: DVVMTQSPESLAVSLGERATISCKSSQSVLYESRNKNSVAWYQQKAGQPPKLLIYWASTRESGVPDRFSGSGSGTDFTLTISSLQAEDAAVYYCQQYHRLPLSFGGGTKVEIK

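Phage display of a naive human antibody library on the peptide gave the parent. These sequences belong to a second round, designed from the earlier measurements on random variants of the parent. Their group label is 14L_En_Gibbs (En: ensemble of fine-tuned language models; Gibbs: Gibbs sampling). AlphaSeq pools MATa yeast showing the antibodies with MATalpha yeast showing the peptide. The frequency of each diploid, read from paired DNA barcodes, reflects how well the two displayed proteins bind. Each replicate has its own calibration line, from reference interactions of the BCL2 family. Each pool was mated in six replicate cultures.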

The parent's light chain CDRs are KSSQSVLYESRNKNSVA, WASTRES, QQYHRLPLS; each variant's own CDRs replace them letter for letter. Affinities are written as log10 Kd with Kd in nM; a lower number is a better binder. A mean of the replicates is given; it leaves out those without a signal. A pair that was not seen in that replicate is written "nd"; this usually means weak binding, but a binder can also be missed. Of ten entries with the parent sequence, four were seen in most replicates (averages 0.34 to 2.37), three in one and three in none, so single entries are noisy. The authors' rule: three or more of the six replicates give a measured affinity, fewer mean a poor binder. Three control strains display no target. For all light chain designs, 4% of the pairings with them gave a signal, with a median of 2.64 and one signal in twenty below 1.59, so weak values seen in few replicates may be background. For each scFv, signals with the empty controls are counted beside the result, with their mean in brackets. A sequence measured in both rounds can read differently, since the two assays cover different ranges.

| # | CDR-L1 | CDR-L2 | CDR-L3 | log10 Kd, replicates | mean, log10 nM | control signals |
|---|---|---|---|---|---|---|
| 1 | NISIEDVSEHNFANNVA | STDCRCS | QQYFHLPLM | 1.46 / 1.51 / 2.27 / 1.88 / 1.91 / 1.56 | 1.77 | 0/18 |
| 2 | MLENKPTSFNDNKDAIA | DDSASTS | QQYDRLPLS | nd / nd / nd / nd / nd / nd | nd | 0/18 |
| 3 | QLEVERGQEWKAGAAIA | GNTEKLH | QQYAMLPLS | 1.21 / 1.03 / 0.97 / 0.71 / 1.43 / 0.92 | 1.05 | 1/18 (2.23) |
| 4 | VLAMESYQKSRHESNIA | GANMRAQ | QQYARLPFQ | 0.50 / 0.32 / 0.35 / 0.22 / 0.36 / 0.49 | 0.37 | 0/18 |
| 5 | YMSGQIDGGWNQQEAIA | QVTYKED | QQYYHLPLS | nd / 2.09 / nd / nd / nd / nd | 2.09 | 0/18 |
| 6 | GLSNQETEQIAHANSIA | DRDERDV | QQYAHLPLS | 0.38 / 0.64 / 0.31 / 0.46 / 0.59 / 0.57 | 0.49 | 3/18 (3.21) |
| 7 | DLTGMFNMAGQQQHSIA | NGGIKIE | QQYNRLPLA | 0.07 / 0.04 / 0.02 / -0.14 / 0.01 / 0.08 | 0.01 | 1/18 (3.16) |
| 8 | KLMDNPWVEDKYRNNIA | DIETKAI | QHYHRLPLL | 1.63 / 1.33 / 1.39 / 1.37 / 1.26 / 1.74 | 1.45 | 1/18 (2.35) |
| 9 | QLGKNQSGDTLSQGAIA | HAAELVD | QQYFRLPLL | 0.91 / 0.74 / 0.75 / 0.66 / 0.64 / 0.69 | 0.73 | 0/18 |
| 10 | SLTKLETTGQKKSENIA | DQSMRYE | QQYSRLPLK | 1.26 / 0.87 / 0.94 / 0.96 / 2.35 / 1.74 | 1.36 | 0/18 |
| 11 | MLSLNLHDMDANMNNVA | EMNKLTA | QDYHRLPLH | 0.53 / 0.76 / 0.42 / 0.77 / 0.45 / 0.77 | 0.62 | 0/18 |
| 12 | QLNVNRLMNYTMNNAIA | GKTLRVD | QQYARLPLS | 0.86 / 0.77 / 0.63 / 0.96 / 0.63 / 0.82 | 0.78 | 0/18 |
| 13 | HVAQTRQEDIQNKNSVA | EGSVVIS | QQYSKLPLS | 0.94 / 1.07 / 0.91 / 1.03 / 1.05 / 1.26 | 1.04 | 1/18 (2.49) |
| 14 | NLQNIGSENSVWKNAIA | DVNIKES | QQYFRLPLL | 0.54 / 0.73 / 0.44 / 0.50 / 0.60 / 0.41 | 0.54 | 0/18 |
| 15 | KMRVSLQQGIYRADSIA | STDIRVL | QQYYHLPLA | 1.51 / 1.27 / 1.70 / 1.16 / 0.84 / 1.51 | 1.33 | 0/18 |
| 16 | KIAHAPLEYNEKMNSVA | NGACAEI | QQYDRLPLA | 0.32 / 0.60 / 0.24 / 0.08 / 0.45 / 0.91 | 0.43 | 1/18 (2.48) |
| 17 | NLPMKELGMSWNANNVA | DSENRIK | QQYSRLPLM | 0.75 / -0.06 / -0.40 / -0.35 / 0.66 / 0.50 | 0.18 | 1/18 (2.22) |
| 18 | KLTHLSFVHDRQKNNVA | DLNRKAA | QQYNRLPLT | 1.70 / 2.01 / 3.63 / 1.55 / 2.49 / 2.67 | 2.34 | 3/18 (3.04) |
| 19 | HVPNYTENFMSAKQNIA | DQSAKTS | QQYDRLPLA | 0.72 / 0.65 / 0.83 / 0.63 / 0.48 / 0.58 | 0.65 | 1/18 (3.27) |
| 20 | RLRNDWNGWVNNGASIA | DANMYAP | QQYQRLPLA | 0.19 / 0.27 / 0.21 / 0.30 / 0.07 / 0.25 | 0.21 | 0/18 |
| 21 | NLMSGGSELSVWSRNIA | SANIRES | QQYFRLPLL | 0.35 / 0.40 / 0.32 / 0.20 / 0.37 / 0.39 | 0.34 | 2/18 (2.88) |
| 22 | QLKTEVIDNQQLRNSIA | ENELRAM | QQYLMLPLS | 0.75 / 0.66 / 0.77 / 0.78 / 0.78 / 1.02 | 0.79 | 2/18 (2.22) |
| 23 | QITQVQQYDAPNTYNVA | DARVSGR | QQYSQLPLT | 0.63 / 0.88 / 0.57 / 1.06 / 0.67 / 0.89 | 0.79 | 0/18 |
| 24 | KFSQSKEMVNYEGESIA | GSHTIQE | QQYDRLPLA | 1.36 / 0.77 / 0.70 / 0.97 / 0.86 / 1.02 | 0.95 | 0/18 |
| 25 | RVQLNSGEIDMHWYNIA | SASIRAD | QQYFRLPIF | 1.08 / 1.13 / 1.00 / 0.90 / 1.04 / 1.34 | 1.08 | 2/18 (2.34) |
| 26 | YMSGQISGGWNQQEAIA | EVTYKEH | QQYYQLPLS | nd / nd / nd / nd / nd / nd | nd | 0/18 |
| 27 | QIALSTEEVGIQKNSIA | EETVRPA | QQYLRLPLH | 1.57 / 1.55 / 0.82 / 1.88 / 1.28 / 1.86 | 1.49 | 0/18 |
| 28 | VLPDNLLMSESQYHSIA | NGVQRME | QQYMRLPLT | 0.24 / -0.06 / -0.36 / 0.01 / -0.37 / 0.11 | -0.07 | 0/18 |
| 29 | KVHAYVQGVEQDQQNIA | ETSYASR | QQYFRLPLS | 1.17 / 1.93 / 0.69 / 1.26 / 1.36 / 0.73 | 1.19 | 0/18 |
| 30 | KISMGWEMNTRQNHNMA | EASLKDS | QQYNRLPLF | 0.34 / 0.30 / -0.07 / -0.13 / 0.18 / -0.06 | 0.09 | 0/18 |
| 31 | KLQNFSQEHNGMWNSIA | DETMKHT | QHYIRLPLV | 1.75 / 2.51 / 3.40 / 2.11 / 2.39 / 2.13 | 2.38 | 1/18 (3.08) |
| 32 | KLTEAMASWTGARHNIA | DRTVTAP | QQYSRLPIT | -0.01 / 0.38 / 0.16 / -0.08 / 0.21 / 0.31 | 0.16 | 2/18 (2.61) |
| 33 | FMGGTKTMQSNEIGNVA | DMNERFA | QQYFQLPLS | 1.19 / 1.14 / 0.67 / 0.70 / 0.85 / 1.05 | 0.93 | 2/18 (2.90) |

Excerpt, the first 4 entries:

| CDR-L1 | CDR-L2 | CDR-L3 | log10 Kd, replicates | mean, log10 nM | control signals |
|---|---|---|---|---|---|
| NISIEDVSEHNFANNVA | STDCRCS | QQYFHLPLM | 1.46 / 1.51 / 2.27 / 1.88 / 1.91 / 1.56 | 1.77 | 0/18 |
| MLENKPTSFNDNKDAIA | DDSASTS | QQYDRLPLS | nd / nd / nd / nd / nd / nd | nd | 0/18 |
| QLEVERGQEWKAGAAIA | GNTEKLH | QQYAMLPLS | 1.21 / 1.03 / 0.97 / 0.71 / 1.43 / 0.92 | 1.05 | 1/18 (2.23) |
| VLAMESYQKSRHESNIA | GANMRAQ | QQYARLPFQ | 0.50 / 0.32 / 0.35 / 0.22 / 0.36 / 0.49 | 0.37 | 0/18 |

The measurements come from Li et al. 2023 (doi:10.1038/s41467-023-39022-2) through the FLAb antibody collection.